# Source: patent US4430435A (priority 1980, dated 1984)
# Sequences of proteins named here, by UniProt entry; tags and fusion partners are left off.
# UniProt P20288, whole entry, looked up: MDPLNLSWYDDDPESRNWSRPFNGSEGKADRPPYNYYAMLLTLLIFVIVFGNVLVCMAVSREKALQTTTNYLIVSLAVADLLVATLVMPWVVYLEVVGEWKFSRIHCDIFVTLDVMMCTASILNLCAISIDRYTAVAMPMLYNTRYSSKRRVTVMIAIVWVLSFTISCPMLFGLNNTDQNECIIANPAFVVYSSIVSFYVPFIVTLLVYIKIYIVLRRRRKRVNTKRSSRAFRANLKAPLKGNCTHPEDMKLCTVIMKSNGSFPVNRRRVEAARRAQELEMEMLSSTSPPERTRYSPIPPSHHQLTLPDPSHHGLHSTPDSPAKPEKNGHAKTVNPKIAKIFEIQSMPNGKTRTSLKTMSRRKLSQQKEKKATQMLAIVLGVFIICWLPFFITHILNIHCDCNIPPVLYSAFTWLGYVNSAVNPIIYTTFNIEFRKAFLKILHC
# Read-outs that look alike come from different tables or passages of the source.
# Key:
# calf caudate = calf caudate (Bos taurus, UniProt P20288)
# [1] = last line of Table 4, μg/Tube TBP not given
structure (smiles),measurement,setting,value
CCCCOP(=O)(OCCCC)OCCCC,125I-HYP Bound (CPM) in Buffer,β-Adrenergic Receptors; 0.10 μg/ml TBP,8002 CPM
same,125I-HYP Bound (CPM) in Serum,β-Adrenergic Receptors; 0.10 μg/ml TBP,2067 CPM
same,% Change in Buffer,β-Adrenergic Receptors; 0.10 μg/ml TBP,-6%
same,% Change in Serum,β-Adrenergic Receptors; 0.10 μg/ml TBP,+3%
same,125I-HYP Bound (CPM) in Buffer,β-Adrenergic Receptors; 0.20 μg/ml TBP,7987 CPM
same,125I-HYP Bound (CPM) in Serum,β-Adrenergic Receptors; 0.20 μg/ml TBP,2537 CPM
same,% Change in Buffer,β-Adrenergic Receptors; 0.20 μg/ml TBP,-6%
same,% Change in Serum,β-Adrenergic Receptors; 0.20 μg/ml TBP,+26%
same,125I-HYP Bound (CPM) in Buffer,β-Adrenergic Receptors; 0.50 μg/ml TBP,8066 CPM
same,125I-HYP Bound (CPM) in Serum,β-Adrenergic Receptors; 0.50 μg/ml TBP,5853 CPM
same,% Change in Buffer,β-Adrenergic Receptors; 0.50 μg/ml TBP,-6%
same,% Change in Serum,β-Adrenergic Receptors; 0.50 μg/ml TBP,+191%
same,125I-HYP Bound (CPM) in Buffer,β-Adrenergic Receptors; 1.0 μg/ml TBP,8051 CPM
same,125I-HYP Bound (CPM) in Serum,β-Adrenergic Receptors; 1.0 μg/ml TBP,5791 CPM
same,% Change in Buffer,β-Adrenergic Receptors; 1.0 μg/ml TBP,-6%
same,% Change in Serum,β-Adrenergic Receptors; 1.0 μg/ml TBP,+188%
same,125I-HYP Bound (CPM) in Buffer,β-Adrenergic Receptors; 5.0 μg/ml TBP,8091 CPM
same,125I-HYP Bound (CPM) in Serum,β-Adrenergic Receptors; 5.0 μg/ml TBP,5871 CPM
same,% Change in Buffer,β-Adrenergic Receptors; 5.0 μg/ml TBP,-5%
same,% Change in Serum,β-Adrenergic Receptors; 5.0 μg/ml TBP,+192%
same,125I-HYP Bound (CPM) in Buffer,β-Adrenergic Receptors; 10.0 μg/ml TBP,7899 CPM
same,125I-HYP Bound (CPM) in Serum,β-Adrenergic Receptors; 10.0 μg/ml TBP,5863 CPM
same,% Change in Buffer,β-Adrenergic Receptors; 10.0 μg/ml TBP,-6%
same,% Change in Serum,β-Adrenergic Receptors; 10.0 μg/ml TBP,+192%
same,% 3H-Spiperone Bound in Buffer,calf caudate; 1.56 μg/Tube TBP,37.3%
same,% 3H-Spiperone Bound in Serum,calf caudate; 1.56 μg/Tube TBP,29.5%
same,% Change in Buffer,calf caudate; 1.56 μg/Tube TBP,+1%
same,% Change in Serum,calf caudate; 1.56 μg/Tube TBP,+24%
same,% 3H-Spiperone Bound in Buffer,calf caudate; 3.13 μg/Tube TBP,36.4%
same,% 3H-Spiperone Bound in Serum,calf caudate; 3.13 μg/Tube TBP,30.6%
same,% Change in Buffer,calf caudate; 3.13 μg/Tube TBP,-2%
same,% Change in Serum,calf caudate; 3.13 μg/Tube TBP,+29%
same,% 3H-Spiperone Bound in Buffer,calf caudate; 6.25 μg/Tube TBP,36.0%
same,% 3H-Spiperone Bound in Serum,calf caudate; 6.25 μg/Tube TBP,31.6%
same,% Change in Buffer,calf caudate; 6.25 μg/Tube TBP,-3%
same,% Change in Serum,calf caudate; 6.25 μg/Tube TBP,+33%
same,% 3H-Spiperone Bound in Buffer,calf caudate; 12.5 μg/Tube TBP,35.1%
same,% 3H-Spiperone Bound in Serum,calf caudate; 12.5 μg/Tube TBP,31.6%
same,% Change in Buffer,calf caudate; 12.5 μg/Tube TBP,-5%
same,% Change in Serum,calf caudate; 12.5 μg/Tube TBP,+33%
same,% 3H-Spiperone Bound in Buffer,calf caudate; 25.0 μg/Tube TBP,29.3%
same,% 3H-Spiperone Bound in Serum,calf caudate; 25.0 μg/Tube TBP,31.4%
same,% Change in Buffer,calf caudate; 25.0 μg/Tube TBP,-20%
same,% Change in Serum,calf caudate; 25.0 μg/Tube TBP,+32%
same,% 3H-Spiperone Bound in Buffer,calf caudate; 100.0 μg/Tube TBP,23.7%
same,% 3H-Spiperone Bound in Serum,calf caudate; 100.0 μg/Tube TBP,31.5%
same,% Change in Buffer,calf caudate; 100.0 μg/Tube TBP,-36%
same,% Change in Serum,calf caudate; 100.0 μg/Tube TBP,+33%
same,% 3H-Spiperone Bound in Buffer,calf caudate; [1],8.8%
same,% 3H-Spiperone Bound in Serum,calf caudate; [1],28.8%
same,% Change in Buffer,calf caudate; [1],-76%
same,% Change in Serum,calf caudate; [1],+22%
